Sequences of proteins named here, by UniProt entry; tags and fusion partners are left off.
UniProt P52333, whole entry: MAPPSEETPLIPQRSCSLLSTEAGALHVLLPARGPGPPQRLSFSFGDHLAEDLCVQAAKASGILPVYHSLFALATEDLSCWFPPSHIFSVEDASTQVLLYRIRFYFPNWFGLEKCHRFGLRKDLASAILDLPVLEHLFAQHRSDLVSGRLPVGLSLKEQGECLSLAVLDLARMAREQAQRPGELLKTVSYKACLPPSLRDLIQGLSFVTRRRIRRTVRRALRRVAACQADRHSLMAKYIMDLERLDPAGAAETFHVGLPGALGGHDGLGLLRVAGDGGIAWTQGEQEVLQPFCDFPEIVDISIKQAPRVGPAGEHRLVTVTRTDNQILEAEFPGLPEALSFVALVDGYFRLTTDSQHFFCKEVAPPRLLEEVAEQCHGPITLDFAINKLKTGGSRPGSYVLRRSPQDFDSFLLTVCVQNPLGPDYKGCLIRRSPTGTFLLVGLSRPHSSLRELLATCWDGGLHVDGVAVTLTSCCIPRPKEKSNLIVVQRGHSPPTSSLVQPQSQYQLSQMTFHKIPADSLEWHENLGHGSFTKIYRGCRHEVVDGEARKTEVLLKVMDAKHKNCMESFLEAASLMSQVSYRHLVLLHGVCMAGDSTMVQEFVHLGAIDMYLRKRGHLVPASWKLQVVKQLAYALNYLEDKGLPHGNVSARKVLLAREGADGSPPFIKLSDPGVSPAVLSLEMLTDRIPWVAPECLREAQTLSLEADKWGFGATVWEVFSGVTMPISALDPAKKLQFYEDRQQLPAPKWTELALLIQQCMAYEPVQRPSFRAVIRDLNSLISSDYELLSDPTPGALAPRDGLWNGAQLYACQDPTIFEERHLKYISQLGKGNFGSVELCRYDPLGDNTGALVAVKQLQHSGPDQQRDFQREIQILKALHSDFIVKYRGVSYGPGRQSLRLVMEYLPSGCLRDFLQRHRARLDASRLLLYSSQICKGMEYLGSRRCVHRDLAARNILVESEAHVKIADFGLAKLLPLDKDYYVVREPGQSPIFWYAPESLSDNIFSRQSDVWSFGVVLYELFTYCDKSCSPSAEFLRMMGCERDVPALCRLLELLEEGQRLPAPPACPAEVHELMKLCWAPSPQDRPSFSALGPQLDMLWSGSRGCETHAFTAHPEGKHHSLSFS

In patent US20260158031A1, “AROMATIC HETEROCYCLIC COMPOUND, PHARMACEUTICAL COMPOSITION CONTAINING THE SAME, AND USE THEREOF” (HANG ZHOU YUHONG PHARMATECH CO., LTD., priority 2021, published 2026):

Target: JAK3 kinase (Homo sapiens, UniProt P52333)
Assay: Mobility shift assay, in vitro JAK3 kinase inhibitory activity
Assay type: biochemical
Details: read-out: JAK3 IC50, Example 136

IC50: 1.5 nM
SMILES: C=CC(=O)N1Cc2c(-c3ccnc4[nH]ccc34)cnn2CC12CC2
